In PubChem BioAssay (NCATS):
The list shows a part of the results, in another mix than the full data. Inconclusive results are not listed. Active and inactive are the calls of the source. The call rests on the fitted dose curve; in most records, active means well fitted inhibition curve with a large enough effect in the repeat runs; inconclusive means weak or mixed curves; inactive means no such curve, though single readings can be large or run the other way.

By UniProt entry, the sequences of proteins in these tests, tags left out.
UniProt P11712, whole entry, looked up: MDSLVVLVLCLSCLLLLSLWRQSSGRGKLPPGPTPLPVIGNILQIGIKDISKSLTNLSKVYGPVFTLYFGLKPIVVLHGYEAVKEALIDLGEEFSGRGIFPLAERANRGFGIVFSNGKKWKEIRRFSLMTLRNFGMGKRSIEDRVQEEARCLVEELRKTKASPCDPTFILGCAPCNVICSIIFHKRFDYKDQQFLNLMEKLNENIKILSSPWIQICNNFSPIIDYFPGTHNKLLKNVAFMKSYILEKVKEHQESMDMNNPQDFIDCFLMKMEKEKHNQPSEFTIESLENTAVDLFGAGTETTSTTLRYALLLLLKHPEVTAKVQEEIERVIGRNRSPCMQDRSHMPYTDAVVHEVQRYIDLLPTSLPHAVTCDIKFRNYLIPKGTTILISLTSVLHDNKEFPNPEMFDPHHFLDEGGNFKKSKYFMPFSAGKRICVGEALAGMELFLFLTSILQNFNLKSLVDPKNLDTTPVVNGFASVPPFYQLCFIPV

These compounds were tested against Cytochrome P450 2C9 (Homo sapiens) (UniProt P11712) (assay: Cytochrome P450 family 2 subfamily C member 9 (CYP2C9) small molecule antagonists: luciferase biochemical (cell-free) qHTS assay (AID 1645842; further: nearly all actives have a fitted effect of over 55% in size)). Settings: P450-Glo CYP2C9 enzyme assay, luciferin luminescence.
Potency means the concentration at half of the fitted maximal effect.

Structure (SMILES) | Potency
C#C[C@]1(O)CC[C@H]2[C@@H]3CCC4=Cc5oncc5C[C@]4(C)[C@H]3CC[C@@]21C | active: 1.38 µM
OC(Cn1cncn1)(Cn1cncn1)c1ccc(F)cc1F | active: 11 µM
O=c1c(O)c(-c2ccc(O)c(O)c2)oc2cc(O)cc(O)c12 | active: 13.8 µM
CN(C)c1ccc2nc3ccc(=[N+](C)C)cc-3sc2c1 | active: 0.692 µM
